Source: paper PMC11676734, “Novel Cyclic Peptide–Drug Conjugate P6-SN38 Toward Targeted Treatment of EGFR Overexpressed Non-Small Cell Lung Cancer” (Pharmaceutics, 2024)

Columns and labels:
H1299 (EGFR+) tumor = experiment: In vivo tumor growth inhibition, H1299 (EGFR+) xenograft; parameters: species or system NOD/SCID (nude) mice; settings: i.v. once a week, 3 times; Erbitux 10 mg/kg, free SN38 3 mg/kg; 18 days; N = 4
Method: Animal protocols were approved by the Institutional Animal Care and Use Committee at Ariel University. NOD/SCID (nude) mice were injected with H1299 in the right flank and K562 cells in the left flank (10^6 cells each), so that each mouse developed dual H1299 and K562 xenografts.
(§1) When tumors reached~50 mm^3, mice were injected via tail vein (i.v.). To investigate the peptide accumulation in the resected tumors and organs, mice were once administered with 10 mg/kg of P6-FITC [26], while for the study of the tumor growth inhibition, mice were injected once a week (a total of 3 times) with 10 mg/kg of P6-SN38, 10 mg/kg of Erbitux, or 3 mg/kg of free SN38.
(§2) The mice’s weight and tumor volumes were measured every 2 days. The tumor sizes were measured by using the hands-on digital caliper method, and the tumor volumes were calculated according to the Formula (1). Tumor volume (mm^3) = 0.5 × Tumor Length × Tumor Width^2(1)
(§3) Figure 6 In vivo effect of P6-SN38 conjugate in NSCLC model (10 mg/kg, once a week). Effect of P6-SN38, free SN38, and Erbitux on tumor volume compared to non-treated control (A) and mice weight (B). The resected tumors are shown in (C). N = 4 in each group. * p < 0.05, ** p < 0.005, *** p < 0.001, **** p < 0.0001.

[1] = Mice body weight during efficacy study; format: in vivo, NOD/SCID (nude) mice; settings: i.v. once a week, 3 times; P6-SN38 10 mg/kg, Erbitux 10 mg/kg, free SN38 3 mg/kg; 18 days; N = 4
Method: as §1, §2, §3

Erbitux: EGFR-specific antibody cetuximab (Erbitux)
effect on tumor growth, in words (H1299 (EGFR+) tumor): ineffective at inhibiting tumor growth | mice weight loss, in words [1]: negligible weight loss
